pKi: −log10 of the molar value.
Molecular target: Adenosine receptor A2a (Homo sapiens, UniProt P29274)
Test: Binding affinity to human A2A adenosine receptor expressed in CHO cells
Format: cell-based

pKi: 8.64
Structure (SMILES): CCn1nnnc1[C@H]1O[C@@H](n2cnc3c(N)nc(N[C@H](CO)Cc4ccccc4)nc32)[C@H](O)[C@@H]1O

From ChEMBL document CHEMBL1949672 (J Med Chem, 2012)
